Test [1] has as its target human 20S proteasome (human) (UniProt P60900).
For test [2] the target is unchanged. The source holds these as a separate data set.
Test [3] shares this target. This is another data set of the same source.
For test [4] the target is unchanged. This is another data set of the same source.
The target is the same in test [5]. The source holds these as a separate data set.

The chains behind the UniProt entries cited, without tags or fusion partners. Where a name states a change or a piece, a line headed by the entry shows the natural chain unless it says otherwise.
UniProt P60900: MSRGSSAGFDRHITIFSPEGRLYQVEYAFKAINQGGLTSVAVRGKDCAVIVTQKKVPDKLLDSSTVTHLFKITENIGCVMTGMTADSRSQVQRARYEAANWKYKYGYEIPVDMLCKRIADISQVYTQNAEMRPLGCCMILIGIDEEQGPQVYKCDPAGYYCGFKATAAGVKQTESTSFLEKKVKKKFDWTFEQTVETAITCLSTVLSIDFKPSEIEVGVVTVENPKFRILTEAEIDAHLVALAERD

Where two headings read alike, the source gives them in different places.

In test [1], hRpt5 peptide with Ala at P4 came in with a stimulation of suc-LLVY-amc turnover by h20S, against the WT peptide of 1.3 fold over WT.

In test [2], Opt5^Y5 peptide gave an EC50 of stimulation of h20S activity of more than 600 µM and a stimulation of h20S activity, loss against Opt5^YF of 80 % reduction.

Consider Opt5 peptide (Ac-NLSYYT), for which the EC50 of stimulation of suc-LLVY-amc hydrolysis by h20S in test [3] came out at 35.5 µM.

Consider hRpt5 peptide with Ala at P6, for which, in test [1], the stimulation of suc-LLVY-amc turnover by h20S, against the WT peptide was 80 % of WT.

In the case of MBP^YF, the EC50 of stimulation of h20S activity in test [4] is 10 µM.

For Opt5^FY peptide, the stimulation of suc-LLVY-amc hydrolysis by h20S, loss against Opt5^YY in test [5] came out at 70 % reduction.

In test [4], MBP^FY came in with an EC50 of stimulation of h20S activity of more than 400 µM.

On to “MBP^YY (Opt5 chimera of maltose-binding protein)”, for which, in test [4], the EC50 of stimulation of h20S activity was 41.8 µM.

In the case of hRpt5 C-terminal peptide ANLQYYA, in test [1], the stimulation of suc-LLVY-amc turnover by h20S worked out at 3 fold.

With Opt5^Y4 peptide, in test [2], the EC50 of stimulation of h20S activity was more than 600 µM and the stimulation of h20S activity, loss against Opt5^YF turned out to be 80 % reduction.

Take Opt5^YF peptide: the EC50 of stimulation of suc-LLVY-amc hydrolysis by h20S in test [5] was 17.3 µM.

These data come from PMC8907193, “The YΦ motif defines the structure-activity relationships of human 20S proteasome activators” (Nature Communications, 2022).
